Measured values reported in ChEMBL document CHEMBL1149967, “Synthesis and antitumor activity of novel distamycin derivatives” (Bioorg Med Chem Lett, 1996).

Tested on: L1210
Assay: In vitro inhibition of L1210 murine leukemia (Drug sensitivity was determined by counting surviving cells after 48 hr of continuous exposure to at least 4 conc. of drug)

Structure (SMILES): Cl.Cn1cc(NC(=O)c2cc(NC(=O)c3cc(NC(=O)c4ccc(N(CCCl)CCCl)cc4)cn3C)cn2C)cc1C(=O)NCCC(=N)N [TALLIMUSTINE CHLORIDE]
- IC50: 0.0503 µg/mL
